Where two headings read alike, the source gives them in different places.
Molecular target: C-Raf FL (full-length C-Raf protein, Y340E and Y341E activating mutations) (Homo sapiens (Human), UniProt P04049, Y340E/Y341E)
Assay type: biochemical
Conditions: read-out: c-Raf FL IC-50
[1] = AlphaScreen, 60 min pre-incubation, 1 hour reaction

The chains behind the UniProt entries cited, without tags or fusion partners.
UniProt P04049, whole entry Y340E/Y341E: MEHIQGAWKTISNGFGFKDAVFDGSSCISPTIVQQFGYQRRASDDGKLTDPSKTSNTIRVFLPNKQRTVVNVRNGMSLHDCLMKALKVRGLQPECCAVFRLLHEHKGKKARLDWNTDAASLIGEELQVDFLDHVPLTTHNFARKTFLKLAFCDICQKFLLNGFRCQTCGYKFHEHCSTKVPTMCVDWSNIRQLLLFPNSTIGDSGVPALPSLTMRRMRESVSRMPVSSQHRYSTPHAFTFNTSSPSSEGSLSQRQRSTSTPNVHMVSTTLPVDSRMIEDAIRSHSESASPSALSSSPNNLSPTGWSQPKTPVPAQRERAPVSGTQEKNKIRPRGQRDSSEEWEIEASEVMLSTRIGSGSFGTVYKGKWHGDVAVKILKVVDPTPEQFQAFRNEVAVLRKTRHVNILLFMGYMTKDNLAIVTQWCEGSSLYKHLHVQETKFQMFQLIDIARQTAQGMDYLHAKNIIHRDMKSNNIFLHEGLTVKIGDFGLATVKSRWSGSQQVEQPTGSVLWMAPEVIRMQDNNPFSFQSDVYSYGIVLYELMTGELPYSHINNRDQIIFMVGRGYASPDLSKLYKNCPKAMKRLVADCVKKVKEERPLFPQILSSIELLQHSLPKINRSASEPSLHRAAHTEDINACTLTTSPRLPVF

SMILES | IC50 [1] [nM] | IC50 [nM]
Cc1ccc(NC(=O)c2cnnc(C(C)(C)C#N)c2)cc1-c1cc(N2CCOCC2)n2nccc2n1 [Example 795, 6-(2-cyanopropan-2-yl)-N-(4-methyl-3-(7-morpholinopyrazolo[1,5-a]pyrimidin-5-yl)phenyl)pyridazine-4-carboxamide] | 0.9 | –
Cc1ccc(NC(=O)c2ccnc(C3(C#N)CC3)c2)cc1-c1cc(N2CCOCC2)n2nccc2n1 [Example 796, 2-(1-cyanocyclopropyl)-N-(4-methyl-3-(7-morpholinopyrazolo[1,5-a]pyrimidin-5-yl)phenyl)isonicotinamide] | 0.2 | –
Cc1ncc(NC(=O)c2ccnc(C(C)(C)O)c2)cc1-c1cc(N2CCOCC2)n2nccc2n1 [Example 797, 2-(2-hydroxypropan-2-yl)-N-(6-methyl-5-(7-morpholinopyrazolo[1,5-a]pyrimidin-5-yl)pyridin-3-yl)isonicotinamide] | 7.9 | –
Cc1ncc(NC(=O)c2ccnc(C(F)(F)F)c2)cc1-c1cc(N2CCOCC2)n2nccc2n1 [Example 798, N-(6-methyl-5-(7-morpholinopyrazolo[1,5-a]pyrimidin-5-yl)pyridin-3-yl)-2-(trifluoromethyl)isonicotinamide] | 0.5 | –
CCC(F)(F)c1cc(C(=O)Nc2cnc(C)c(-c3cc(N4CCOCC4)n4nccc4n3)c2)ccn1 [Example 800, 2-(1,1-difluoropropyl)-N-(6-methyl-5-(7-morpholinopyrazolo[1,5-a]pyrimidin-5-yl)pyridin-3-yl)isonicotinamide] | 0.8 | –
Cc1ncc(NC(=O)c2cnnc(C(F)(F)F)c2)cc1-c1cc(N2CCOCC2)n2nccc2n1 [Example 801, N-(6-methyl-5-(7-morpholinopyrazolo[1,5-a]pyrimidin-5-yl)pyridin-3-yl)-6-(trifluoromethyl)pyridazine-4-carboxamide] | 0.9 | –
Cc1ncc(NC(=O)c2ccnc(C3(C#N)CC3)c2)cc1-c1cc(N2CCOCC2)n2nccc2n1 [Example 802, 2-(1-cyanocyclopropyl)-N-(6-methyl-5-(7-morpholinopyrazolo[1,5-a]pyrimidin-5-yl)pyridin-3-yl)isonicotinamide] | 1 | –
Cc1ncc(NC(=O)c2ccnc(C(F)F)c2)cc1-c1cc(N2CCOCC2)n2nccc2n1 [Example 803, 2-(difluoromethyl)-N-(6-methyl-5-(7-morpholinopyrazolo[1,5-a]pyrimidin-5-yl)pyridin-3-yl)isonicotinamide] | 0.9 | –
Cc1ncc(NC(=O)c2cccc(C(F)F)c2)cc1-c1cc(N2CCOCC2)n2nccc2n1 [Example 804, 3-(difluoromethyl)-N-(6-methyl-5-(7-morpholinopyrazolo[1,5-a]pyrimidin-5-yl)pyridin-3-yl)benzamide] | 0.3 | –
Cc1ccc(NC(=O)c2ccnc(C(F)F)c2)cc1-c1cc(N2CCOCC2)n2nccc2n1 [Example 805, 2-(difluoromethyl)-N-(4-methyl-3-(7-morpholinopyrazolo[1,5-a]pyrimidin-5-yl)phenyl)isonicotinamide] | 0.2 | –
Cc1ccc(NC(=O)c2ccnc(S(C)(=O)=O)c2)cc1-c1cc(N2CCOCC2)n2nccc2n1 [Example 806] | 0.6 | –
Cc1ncc(NC(=O)c2ccnc(S(C)(=O)=O)c2)cc1-c1cc(N2CCOCC2)n2nccc2n1 [Example 807, N-(6-methyl-5-(7-morpholinopyrazolo[1,5-a]pyrimidin-5-yl)pyridin-3-yl)-2-(methylsulfonyl)isonicotinamide] | 2.8 | –
Cc1ncc(NC(=O)c2cc(C(F)(F)F)ccn2)cc1-c1cc(N2CCOCC2)n2nccc2n1 [Example 810, N-(6-methyl-5-(7-morpholinopyrazolo[1,5-a]pyrimidin-5-yl)pyridin-3-yl)-4-(trifluoromethyl)picolinamide] | 0.3 | –
CCn1cc(C(=O)Nc2ccc(C)c(-c3cc4[nH]cnc4c(N4CCOCC4)n3)c2)c(C)n1 [Example 814, 1-ethyl-3-methyl-N-(4-methyl-3-(4-morpholino-1H-imidazo[4,5-c]pyridin-6-yl)phenyl)-1H-pyrazole-4-carboxamide] | 3.1 | –
Cc1ccc(NC(=O)c2cn(C)nc2C)cc1-c1cc2[nH]cnc2c(N2CCOCC2)n1 [Example 815, 1,3-dimethyl-N-(4-methyl-3-(4-morpholino-1H-imidazo[4,5-c]pyridin-6-yl)phenyl)-1H-pyrazole-4-carboxamide] | 9 | –
Cc1ccc(NC(=O)c2cn(C(C)C)nc2C)cc1-c1cc2[nH]cnc2c(N2CCOCC2)n1 [Example 816, 1-isopropyl-3-methyl-N-(4-methyl-3-(4-morpholino-1H-imidazo[4,5-c]pyridin-6-yl)phenyl)-1H-pyrazole-4-carboxamide] | 1.6 | –
Cc1cc(C(=O)Nc2ccc(C)c(-c3cc4[nH]cnc4c(N4CCOCC4)n3)c2)n(C)n1 [Example 817, 1,3-dimethyl-N-(4-methyl-3-(4-morpholino-1H-imidazo[4,5-c]pyridin-6-yl)phenyl)-1H-pyrazole-5-carboxamide] | 13.2 | –
Cc1ccc(NC(=O)c2cc(C3CC3)nn2C)cc1-c1cc2[nH]cnc2c(N2CCOCC2)n1 [Example 818, 3-cyclopropyl-1-methyl-N-(4-methyl-3-(4-morpholino-1H-imidazo[4,5-c]pyridin-6-yl)phenyl)-1H-pyrazole-5-carboxamide] | 1.1 | –

SMILES | IC50 [1] [nM] | IC50 [nM]
Cc1ccc(NC(=O)c2cc(C3CC3)on2)cc1-c1cc2[nH]cnc2c(N2CCOCC2)n1 [Example 820, 5-cyclopropyl-N-(4-methyl-3-(4-morpholino-1H-imidazo[4,5-c]pyridin-6-yl)phenyl)isoxazole-3-carboxamide] | 0.1 | –
Cc1ccc(NC(=O)c2cccc(-c3nnco3)c2)cc1-c1cc2[nH]cnc2c(N2CCOCC2)n1 [Example 822, N-(4-methyl-3-(4-morpholino-1H-imidazo[4,5-c]pyridin-6-yl)phenyl)-3-(1,3,4-oxadiazol-2-yl)benzamide] | 0.7 | –
Cc1ccc(NC(=O)c2ccnc(C(C)(C)O)c2)cc1-c1cc2[nH]cnc2c(N2CCOCC2)n1 [Example 823, 2(2-hydroxypropan-2-yl)-N-(4-methyl-3-(4-morpholino-1H-imidazo[4,5-c]pyridin-6-yl)phenyl)isonicotinamide] | 0.9 | –
Cc1ccc(NC(=O)c2cccc(C(F)(F)F)c2)cc1-c1cn2ccnc2c(N2CCOC[C@H]2C)n1 [Example 825, (R)—N-(4-methyl-3-(8-(3-methylmorpholino)imidazo[1,2-a]pyrazin-6-yl)phenyl)-3-(trifluoromethyl)benzamide] | – | 0.2
Cc1ccc(NC(=O)c2cccc(C(F)(F)F)c2)cc1-c1cc(N2CCOCC2)c2oc(=O)[nH]c2c1 [Example 827, N-(4-methyl-3-(7-morpholino-2-oxo-2,3-dihydrobenzo[d]oxazol-5-yl)phenyl)-3-(trifluoromethyl)benzamide] | 0.2 | –
Cc1ccc(NC(=O)c2cccc(C(F)(F)F)c2)cc1-c1nc(N2CCOCC2)c2[nH]ccc2n1 [Example 830, N-(4-methyl-3-(4-morpholino-5H-pyrrolo[3,2-d]pyrimidin-2-yl)phenyl)-3-(trifluoromethyl)benzamide] | 0.1 | –
Cc1ccc(NC(=O)c2cccc(C(F)(F)F)c2)cc1-c1nc(N2CCOCC2)c2cccnc2n1 [Example 833, N-(4-methyl-3-(4-morpholinopyrido[2,3-d]pyrimidin-2-yl)phenyl)-3-(trifluoromethyl)benzamide] | 0.2 | –
Cc1ccc(NC(=O)c2cccc(C(F)(F)F)c2)cc1-c1nc2c(c(N3CCOCC3)n1)CCNC2 [Example 834, N-(4-methyl-3-(4-morpholino-5,6,7,8-tetrahydropyrido[3,4-d]pyrimidin-2-yl)phenyl)-3-(trifluoromethyl)benzamide] | 0.2 | –
Cc1ccc(NC(=O)c2cccc(C(F)(F)F)c2)cc1-c1nc2c(c(N3CCOCC3)n1)CNCC2 [Example 835, N-(4-methyl-3-(4-morpholino-5,6,7,8-tetrahydropyrido[4,3-d]pyrimidin-2-yl)phenyl)-3-(trifluoromethyl)benzamide] | 0.6 | –
Cc1ccc(NC(=O)c2cccc(C(F)(F)F)c2)cc1-c1nc(N2CCOCC2)c2c(cnn2C)n1 [Example 837, N-(4-methyl-3-(1-methyl-7-morpholino-1H-pyrazolo[4,3-d]pyrimidin-5-yl)phenyl)-3-(trifluoromethyl)benzamide] | 0.1 | –
Cc1ccc(NC(=O)c2cccc(C(F)(F)F)c2)cc1-c1nc(N2CCOCC2)c2occc2n1 [Example 838, N-(4-methyl-3-(4-morpholinofuro[3,2-d]pyrimidin-2-yl)phenyl)-3-(trifluoromethyl)benzamide] | 0.3 | –
Cc1ccc(NC(=O)c2cccc(C(F)(F)F)c2)cc1-c1nc(N2CCOCC2)c2ncsc2n1 [Example 839, N-(4-methyl-3-(7-morpholinothiazolo[5,4-d]pyrimidin-5-yl)phenyl)-3-(trifluoromethyl)benzamide] | 0.3 | –
Cc1ccc(NC(=O)c2cccc(C(F)(F)F)c2)cc1-c1nc(N2CCOCC2)c2cnn(C)c2n1 [Example 840, N-(4-methyl-3-(1-methyl-4-morpholino-1H-pyrazolo[3,4-d]pyrimidin-6-yl)phenyl)-3-(trifluoromethyl)benzamide] | 0.2 | –
Cc1ccc(NC(=O)c2ccnc(C(C)C)c2)cc1-c1cc(N2CCOCC2)c2nccn2n1 [Example 842, 2-isopropyl-N-(4-methyl-3-(8-morpholinoimidazo[1,2-b]pyridazin-6-yl)phenyl)isonicotinamide] | 0.3 | –
Cc1ccc(NC(=O)c2ccnc(C(C)(F)F)c2)cc1-c1cc(N2CCOCC2)c2nccn2n1 [Example 843, 2-(1,1-difluoroethyl)-N-(4-methyl-3-(8-morpholinoimidazo[1,2-b]pyridazin-6-yl)phenyl)isonicotinamide] | 0.2 | –
Cc1ccc(NC(=O)c2ccnc(C(C)(C)C#N)c2)cc1-c1cc(N2CCOCC2)c2nccn2n1 [Example 844, 2-(2-cyanopropan-2-yl)-N-(4-methyl-3-(8-morpholinoimidazo[1,2-b]pyridazin-6-yl)phenyl)isonicotinamide] | 0.2 | –
Cc1ccc(NC(=O)c2ccnc(C(C)(C)C)c2)cc1-c1cc(N2CCOCC2)c2nccn2n1 [Example 845, 2-(tert-butyl)-N-(4-methyl-3-(8-morpholinoimidazo[1,2-b]pyridazin-6-yl)phenyl)isonicotinamide] | 0.3 | –

From US9694016B2 (Novartis AG, priority 2013, dated 2017)
